This experiment concerns the target NAD-dependent protein deacylase sirtuin-5, mitochondrial (Homo sapiens) (UniProt Q9NXA8). Conditions: dose 600.0 µM.

The chains behind the UniProt entries cited, without tags or fusion partners. Where a name states a change or a piece, a line headed by the entry shows the natural chain unless it says otherwise.
UniProt Q9NXA8: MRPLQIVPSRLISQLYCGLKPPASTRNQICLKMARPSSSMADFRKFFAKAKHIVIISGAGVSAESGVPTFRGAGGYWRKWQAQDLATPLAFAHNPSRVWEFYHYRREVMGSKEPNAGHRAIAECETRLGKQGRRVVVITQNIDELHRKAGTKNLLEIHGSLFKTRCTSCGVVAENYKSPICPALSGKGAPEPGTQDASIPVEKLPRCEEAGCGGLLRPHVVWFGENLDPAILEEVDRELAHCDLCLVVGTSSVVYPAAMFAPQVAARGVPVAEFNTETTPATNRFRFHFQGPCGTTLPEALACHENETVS

As for `CC(C)c1ccccc1Cc1cc(C(=O)Nc2ccc(S(=O)(=O)c3ccccc3C(C)(C)C)cc2)c(O)c(O)c1O`, the Ka is 21.6 10^4/M.

The values are drawn from ChEMBL document CHEMBL4680222, “Sensitive fluorogenic substrates for sirtuin deacylase inhibitor discovery” (Eur J Med Chem, 2020).
